Yeast mating assay 2: variants of the scFv Ab-91

Values reported by Engelhart et al. 2022, doi:10.1038/s41597-022-01779-4 (FLAb copy).

Antigen: PDVDLGDISGINAS, a 14-residue peptide of the SARS-CoV-2 spike HR2 region.

Ab-91 is the parent antibody, in scFv form: VL, then the linker GGGGSGGGGSGGGGS, then VH. The light chain is unchanged in all variants.
VL: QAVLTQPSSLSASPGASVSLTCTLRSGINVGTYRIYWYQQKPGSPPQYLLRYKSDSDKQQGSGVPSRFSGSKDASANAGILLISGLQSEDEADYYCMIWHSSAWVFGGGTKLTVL
VH: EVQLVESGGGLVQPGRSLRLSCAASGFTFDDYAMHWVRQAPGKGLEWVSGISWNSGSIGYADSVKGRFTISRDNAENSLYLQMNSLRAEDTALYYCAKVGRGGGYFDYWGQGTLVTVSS

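The parent was found by panning a naive human phage display library on the peptide. Variants in AAYL51 differ from the parent at up to three CDR positions; double and triple changes were sampled at random. AlphaSeq pools MATa yeast showing the antibodies with MATalpha yeast showing the peptide. The frequency of each diploid, read from paired DNA barcodes, reflects how well the two displayed proteins bind. Read counts were normalised to the haploid input and turned into Kd by a linear fit to BCL2-family pairs of known affinity, for each replicate. Mating was done three times.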

Substitutions are numbered in sequence along the VH above, starting at 1 (not Kabat). Affinities are written as log10 Kd with Kd in nM; a lower number is a better binder. A mean of the replicates is given; it leaves out those without a signal. Where no diploid with the target was found in any replicate, the entry reads "not detected": below detection, most likely a poor binder, though not proof of it. Background: pairings of library AAYL51 with three empty control strains gave a value in 21% of cases (median 4.54, 5th percentile 3.26). Values in that range, when seen in few replicates, are hard to tell from nonspecific mating. For each scFv, signals with the empty controls are counted beside the result. Parent in this assay: reference entry 1.86, copy in this library 0.88.

changes,"log10 Kd (nM), mean",replicates with signal,signal with controls
G26D/F29L/Y105T,3.37,1/3,0/9
G26A/V99W,not detected,0/3,0/9
S55H/Y60P/V64P,4.70,2/3,0/9
G26D/S52N/I58C,not detected,0/3,0/9
S63Q/V99Y/F106V,5.39,1/3,3/9
G56L/V64C/V99K,3.33,1/3,2/9
S57G/A61I/G102T,4.80,1/3,2/9
S55F/A61P/D107A,not detected,0/3,0/9
S52G/G104H/D107P,not detected,0/3,3/9
F27M/G59V/G104A,not detected,0/3,3/9
Y32W/S57Q,3.59,2/3,2/9
F27K/F106S,not detected,0/3,0/9
D30Y/A33T/V99N,5.05,1/3,7/9
S55I/S63V/G103E,3.22,1/3,1/9
H35Y/S57Y/D62T,3.50,1/3,1/9
D30Y/Y32V/H35N,not detected,0/3,0/9
M34L/S57Y/V99K,4.28,3/3,0/9
W53V/A61D,2.31,3/3,5/9
I58R/G102V/Y108D,4.67,2/3,2/9
F27M/M34I/Y60T,3.91,1/3,5/9
F29E/N54A,not detected,0/3,1/9
S55I/G59V/G104T,not detected,0/3,0/9
F29D/M34Q/S63K,4.79,1/3,1/9
S57G/I58H/S63M,2.23,3/3,4/9
I58E/Y60G/V64N,4.65,1/3,4/9
A33S/S55R/G56Y,3.95,3/3,0/9
W53Q/S63A/G100F,0.86,3/3,2/9
D31T/A33M/G50W,not detected,0/3,0/9
A61L/V99S/Y108C,4.84,3/3,5/9
S57M/G59Y/G100H,5.87,1/3,3/9
N54I/Y60W,not detected,0/3,2/9
G100I/G104R,5.49,2/3,8/9
F29N/S57P/G104Y,5.04,2/3,3/9
D30M/M34C/I58N,5.14,1/3,4/9
G26A/Y32C/K65Q,3.37,1/3,1/9
W53Q/S57K/K65C,4.53,2/3,1/9
F27A/A33Y/S52H,4.64,2/3,2/9
D30K/G100Q/F106W,1.52,3/3,2/9
G26S/Y32V/D62F,4.95,2/3,6/9
F29N/H35E/D107I,3.88,1/3,1/9
F27W/I51W/N54S,3.55,1/3,2/9
F29I/H35A/G56C,3.88,1/3,3/9
G50C/A61V/D107L,not detected,0/3,1/9
F27V/Y60I/K65D,4.61,3/3,8/9
D31W/S57K/A61L,not detected,0/3,1/9
N54D/I58E/D107I,not detected,0/3,2/9